Assay results from patent US20080176838A1, “Dpp-IV Inhibitors” (SANTHERA PHARMACEUTICALS (DEUTSCHLAND) AG, priority 2004, published 2008).
Like-named read-outs stand apart in the source and are kept apart here.

Chains of the proteins cited; added tags and fusions are not shown. Residues count along the entry.
UniProt P27487, 31-766 limits assumed: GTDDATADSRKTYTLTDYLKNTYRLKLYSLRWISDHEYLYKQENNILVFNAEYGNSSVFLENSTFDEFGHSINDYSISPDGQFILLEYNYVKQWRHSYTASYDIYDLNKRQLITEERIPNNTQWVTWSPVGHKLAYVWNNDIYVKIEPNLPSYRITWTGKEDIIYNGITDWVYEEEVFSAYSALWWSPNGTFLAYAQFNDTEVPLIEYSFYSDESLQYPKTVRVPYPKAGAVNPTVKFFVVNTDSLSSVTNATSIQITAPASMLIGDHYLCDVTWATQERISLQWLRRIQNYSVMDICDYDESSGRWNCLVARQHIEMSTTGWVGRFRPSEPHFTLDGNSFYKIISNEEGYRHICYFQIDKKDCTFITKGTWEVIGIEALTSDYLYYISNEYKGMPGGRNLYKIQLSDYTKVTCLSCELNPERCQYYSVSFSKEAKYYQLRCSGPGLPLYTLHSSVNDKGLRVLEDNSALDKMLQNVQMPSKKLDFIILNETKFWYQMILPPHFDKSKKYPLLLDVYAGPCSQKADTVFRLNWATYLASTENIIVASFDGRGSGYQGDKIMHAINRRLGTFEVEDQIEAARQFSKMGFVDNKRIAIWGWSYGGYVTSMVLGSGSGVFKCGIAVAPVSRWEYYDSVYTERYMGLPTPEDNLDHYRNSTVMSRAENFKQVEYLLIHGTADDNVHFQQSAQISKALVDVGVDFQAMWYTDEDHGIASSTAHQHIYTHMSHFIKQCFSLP

Biological target: DPP-IV (Homo sapiens, UniProt P27487)
Experiment: Continuous fluorimetric assay of inhibition of DPP-IV peptidase activity (cleavage of Gly-Pro-AMC)
Format: biochemical
Conditions: read-out: IC50 for inhibition of DPP-IV peptidase activity, substrate Gly-Pro-AMC 16 μM, pH 7.4, 25° C., 1% DMSO

IC50 (tested form: TFA) [nM] | SMILES | IC50 [nM] | IC50 (tested form: bis(trifluoroacetate)) [nM]
 | CC(C[C@H](N)Cc1ccccc1F)N1CCC[C@H]1CNS(C)(=O)=O (single isomer, unassigned) | 101 to 1000 | < 100
< 100 | CC(C[C@H](N)Cc1ccccc1F)N1CCC[C@H]1CNS(=O)(=O)Cc1ccccc1 (single isomer, unassigned) [39 minor] |  | 
< 100 | CC(C[C@H](N)Cc1ccccc1F)N1CCC[C@H]1CNS(=O)(=O)c1cccc(Cl)c1 (single isomer, unassigned) [40 minor] |  | 
< 100 | CC(C[C@H](N)Cc1ccccc1F)N1CCC[C@H]1CNS(=O)(=O)C1CC1 (single isomer, unassigned) [42 minor] |  | 
101 to 1000 | CC(C[C@H](N)Cc1ccccc1F)N1CCC[C@H]1CNS(=O)(=O)c1cccc(Cl)c1 (single isomer, unassigned) [40 major] |  | 
101 to 1000 | CC(C[C@H](N)Cc1ccccc1F)N1CCC[C@H]1CNS(=O)(=O)C1CC1 (single isomer, unassigned) [42 major] |  | 
101 to 1000 | CC(C[C@H](N)Cc1ccccc1F)N1CCC[C@H]1CNS(=O)(=O)Cc1ccccc1 (single isomer, unassigned) [39 major] |  | 
< 100 | CC(C[C@H](N)Cc1ccccc1F)N1CCC[C@H]1CNS(=O)(=O)c1ccc(S(C)(=O)=O)cc1 (single isomer, unassigned) |  | 
